{"source": "patent US9901648B2", "about": "“Stabilization of biomolecules using sugar polymers” (THE REGENTS OF THE UNIVERSITY OF CALIFORNIA, priority 2012, dated 2018)", "tested_on": "RNase ONE ribonuclease", "conditions": "825 eq trehalose added; 37° C.", "data": [{"molecule": "OC[C@H]1O[C@H](O[C@H]2O[C@H](CO)[C@@H](O)[C@H](O)[C@H]2O)[C@H](O)[C@@H](O)[C@@H]1O", "note": "[trehalose]", "values": [{"measurement": "protection of naked siRNA against RNase ONE by added trehalose", "result": "protect siRNA better than having no additives"}]}]}
